Reference: US6403765B1, “Truncated Apaf-1 and methods of use thereof” (Thomas Jefferson University, priority 1998, dated 2002)

Tested on: MCF-7 cells
Experiment: Inhibition of apoptosis in transfected MCF-7 cells
Type: cell-based
Settings: apoptosis induced by UV, Fas agonist antibody, TRAIL, or overexpression of DR4 and DR5, FIG. 17
Excerpt: To express the caspases or truncated Apaf-1 in mammalian cells and assay their apoptotic activity, they were amplified with the T7-tag primer and reverse primers using the pET28a constructs as templates, and subcloned into the mammalian double expression vector pRSC-LacZ (MacFarlane et al., J. Biol. Chem., 272:25417-25420, 1997; Tsang et al., Bio/Technology, 22:68, 1997) or as previously described (Li et al., Cell 91:479-489, 1997; Srinivasula et al., J. Biol. Chem., 272:18452-18545, 1997). This vector allows the expression of lacZ under the Rous Sarcoma virus promoter, and the test cDNA under the CMV promoter. To assay for apoptosis, MCF-7 or 293 cells were transfected, using the method commercially available as the Lipofect Amine method (Life Technologies, Inc.), with the pRSC-LacZ constructs in the presence or absence of different apoptosis-inhibitors. 30 h after transfection cells were stained with β-galactosidase and examined for morphological signs of apoptosis. The percentage of round blue apoptotic cells (mean±SD) were determined by phase contrast microscopy and then represented as a function of total blue cells under each condition (n≧3). […]

X-IAP: X-linked Inhibitor of Apoptosis Protein [reference compound]
inhibition of apoptosis: inhibition
